The source of these data is patent US20190211020A1 (Agency for Science, Technology and Research, priority 2012, published 2019).

Data set [1] concerns MV-4-11, P116.c139 and D1.1 cell lines. Description: Cell cytotoxicity assay, the three test cell lines taken together. In kind it is cell-based. The protocol:
Cancer cell lines, MV-4-11 (leukemia), P116.c139 (acute T cell leukemia) and D1.1 (acute T cell leukemia), were purchased from ATCC and cultured according to supplier's recommendations. K562 cells (myelogenous leukemia) over-expressing eIF4E, were also used for the cytotoxicity assay. For cells treated for 48 hours, 5000 cells were seeded in 70 μl of growth medium in black, flat-bottom 96-well plate. For cells treated for six days, 1000 cells were seeded in 70 μl of growth medium in black, flat-bottom 96-well plate. The compounds, Cercosporamide, Example 176 (ETC-7114), Example 175 (ETC-7117), Example 133 (ETC-7165) and Example 62 (ETC-7168), were treated with doses ranging from 0.003 μM to 50 μM. 50 μl of the diluted compounds was added to the cells and incubated at 37° C. in 5% CO2. After 48 hours or six days treatment, cell viability was determined by CellTiter-Glo Luminescent Cell Viability Assay (Promega, Madison, Wis.). 120 μl of the reagent was added to the cells and luminescence was measured using Tecan Safire Reader. Data was analysed with Graphpad Prism software and the figures represented indicate the half maximal inhibitory concentration (IC50). Error bars denote standard deviation (SD).

Data set [2] is described as follows: Pharmacokinetics assays (plasma and brain). In kind it is in vivo.

Like-named read-outs stand apart in the source and are kept apart here.

Turning to `N#Cc1ccc(-c2cnc3ccc(-c4ccc(C(=O)N5CCOCC5)cc4)nn23)cc1` [Example 62, 4-(6-(4-(morpholine-4-carbonyl)phenyl)imidazo[1,2-b]pyridazin-3-yl)benzonitrile], the “relative cytotoxicity amongst the four compounds” value in data set [1] is listed as “most cytotoxic”.
The Tmax is the time from dosing to the highest level. Turning to `N#Cc1ccc(-c2cnc3ccc(-c4ccc(C(=O)N5CCOCC5)cc4)nn23)cc1` [Entry 5], the Tmax in data set [2] (brain, read-out: Brain Tmax) was 30 min; in data set [2] (plasma, read-out: Plasma Tmax) it was 30 min. Also, the “Plasma/Brain Ratio” value in data set [2] (in vivo) is on record as 0.12.
